{
  "source": "ChEMBL document CHEMBL3785012",
  "about": "“Cell-penetrating conjugates of pentaglutamylated methotrexate as potential anticancer drugs against resistant tumor cells” (Eur J Med Chem, 2016)",
  "key": {"[1]": {"test_system": "MCF7", "assay": "Drug uptake in human MCF7 cells at 1 uM preincubated for 90 mins followed by compound wash out and subsequent trypsin addition for 10 mins by 5 (6)-carboxy-fluorescein based flow cytometric analysis", "format": "ADME, cell-based", "conditions": "mcf7, 10 min; call rule not given here"}, "[2]": {"test_system": "MCF7", "assay": "Drug uptake in human MCF7 cells at 5 uM preincubated for 90 mins followed by compound wash out and subsequent trypsin addition for 10 mins by 5 (6)-carboxy-fluorescein based flow cytometric analysis", "format": "ADME, cell-based", "conditions": "mcf7, 10 min"}, "[3]": {"test_system": "MCF7", "assay": "Cytostatic activity against human MCF7 cells preincubated for 3 hrs followed by serum treatment for 72 hrs measured on day 4 by MTT assay", "format": "functional, cell-based"}, "[4]": {"test_system": "MCF7", "assay": "Drug uptake in human MCF7 cells at 10 uM preincubated for 90 mins followed by compound wash out and subsequent trypsin addition for 10 mins by 5 (6)-carboxy-fluorescein based flow cytometric analysis", "format": "ADME, cell-based", "conditions": "mcf7, 10 min"}, "[5]": {"test_system": "MDA-MB-231", "assay": "Cytostatic activity against human MDA-MB-231 cells preincubated for 3 hrs followed by serum treatment for 72 hrs measured on day 4 by MTT assay", "format": "functional, cell-based"}, "[6]": {"test_system": "MDA-MB-231", "assay": "Drug uptake in human MDA-MB-231 cells at 1 to 10 uM preincubated for 90 mins followed by compound wash out and subsequent trypsin addition for 10 mins by 5 (6)-carboxy-fluorescein based flow cytometric analysis", "format": "ADME, cell-based", "conditions": "mda-mb-231, 10 min"}},
  "data": [
    {"smiles": "CC[C@H](C)[C@H](NC(=O)[C@H](CCCCN)NC(=O)[C@@H](NC(=O)[C@H](CCC(N)=O)NC(=O)[C@@H](N)CCCNC(=N)N)[C@@H](C)CC)C(=O)N[C@@H](Cc1c[nH]c2ccccc12)C(=O)N[C@@H](Cc1ccccc1)C(=O)N[C@@H](CCC(N)=O)C(=O)N[C@@H](CC(N)=O)C(=O)N[C@@H](CCCNC(=N)N)C(=O)N[C@@H](CCCNC(=N)N)C(=O)N[C@@H](CCSC)C(=O)N[C@@H](CCCCN)C(=O)N[C@@H](Cc1c[nH]c2ccccc12)C(=O)N[C@@H](CCCCN)C(=O)N[C@@H](CCCCN)C(=O)O", "values": [
      {"measurement": "Flu intensity", "setting": "[1]", "value": 1728},
      {"measurement": "Flu intensity", "setting": "[2]", "value": "< 7361"},
      {"measurement": "IC50", "setting": "[3]", "value": "> 100", "unit": "µM"},
      {"measurement": "Flu intensity", "setting": "[4]", "value": "< 12310"},
      {"measurement": "IC50", "setting": "[5]", "value": "> 100", "unit": "µM"},
      {"measurement": "Drug uptake", "setting": "[6]", "value": "Active"}
    ]}
  ]
}
